Each structure is given as a SMILES string. This is a selection; strong and weak results do not stand in their true shares. Inconclusive results are not listed. Calls of active or inactive are those of the source. The call rests on the fitted dose curve; in most records, active means well fitted inhibition curve with a large enough effect; inconclusive means small, poorly fitted or top-dose-only effect, or effect the other way; inactive means flat fitted curve, though single readings scatter.
Potency means the concentration at half of the fitted maximal effect.

A short description of the assay: qHTS Assay for Inhibitors of the ERK Signaling Pathway using a Homogeneous Screening Assay; Stimulation with EGF. Further: nearly all actives have a fitted effect of over 55% in size.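 On activity change, negative = inhibition: plate controls were stimulated vehicle wells for no effect and unstimulated vehicle basal for full effect.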 The settings on record: HEK293-V1b, EGF-stimulated phospho-ERK AlphaScreen; series mostly up to 57.5 µM; activity change, negative = inhibition: at the top concentration. Background: In qHTS, concentration-response curves come from the screen itself.
Turning to `CCOC(=O)Nc1ccc([As](=O)(O)O)c(O)c1`, the “activity change, negative = inhibition” value was inactive: 1.84%. For the compound `Cc1cc(SC(NC(=O)c2ccccc2)C(Cl)(Cl)Cl)nc(C(C)C)n1` (centres undefined), the activity change, negative = inhibition was inactive: -17.2% [at 11.5 µM]. Still for that read-out and setting: then `CCOC(=O)Nc1cccc([As](=O)(O)O)c1`, with inactive: -9.96%; and `O=P(Nc1ccccn1)(c1cccc2ccccc12)c1cccc2ccccc12`, with inactive: 0.76% [at 11.5 µM]; and `Cc1cc(SC(NC=O)C(Cl)(Cl)Cl)ncn1` (centres undefined), with inactive: 3.29% [at 11.5 µM].

On to `O=[N+]([O-])c1ccc(Nc2ccc(Oc3ccc([N+](=O)[O-])cc3[N+](=O)[O-])cc2)c([N+](=O)[O-])c1`, for which the “activity change, negative = inhibition” value was inactive: 4.15%. Regarding `CCOC(=O)c1ccc(NC(=O)C(C)(CCl)SC)cc1` (centres undefined), the “activity change, negative = inhibition” value is inactive: 6.3%. Still for that read-out and setting: then `CCC(C)N(CC(C)C)C(=S)SC(NC(C)=O)C(Cl)(Cl)Cl` (centres undefined), with inactive: 7.9% [at 11.5 µM]; and `Cc1c2c(nc3ccccc13)SC(C(Cl)Cl)C2` (centres undefined), with inactive: 5.42% [at 11.5 µM]; and `COc1cc(I)ccc1[As](=O)(O)O`, with inactive: -4.2%. Regarding `COc1ccc2nc(NP(=O)(c3ccccc3)c3ccccc3)sc2c1`, the activity change, negative = inhibition is inactive: -0.612% [at 11.5 µM]. The same measure, in the same setting: then `COc1ccc(N/C(=N/P(=O)(N2CCOCC2)N2CCOCC2)N2CCOCC2)cc1`, with inactive: 10.5%; and `C[As](=O)(O)c1cccc(C(=O)O)c1`, with inactive: -0.831%; and `O=[As](O)(c1ccc(O)cc1)c1ccccc1O`, with inactive: 6.94%.

In the case of `Cc1ccc(OP(=O)(Nc2ccc([N+](=O)[O-])cn2)Oc2ccc(C)cc2)cc1`, the “activity change, negative = inhibition” value is inactive: -7.54%. Take `Cc1ccc2nc3c(c(C)c2c1)CC(C(Cl)Cl)S3` (centres undefined): the activity change, negative = inhibition was inactive: 9.43% [at 11.5 µM]. On the same count and under the same terms, then `ClCCSc1nnc(-c2cccnc2)o1`, with inactive: 6.38% [at 11.5 µM]. For the compound `CC(C)c1ccc(OP(=O)(Nc2ccccn2)Oc2ccccc2F)cc1` (centres undefined), the “activity change, negative = inhibition” value was inactive: -11.8%. On the same count and under the same terms, then `O=[N+]([O-])c1cc([N+](=O)[O-])c(-c2ccn[nH]2)s1`, with inactive: 1.92% [at 11.5 µM]. On the same count and under the same terms, the value for `CC(C)NC(=O)NP(=O)(Oc1ccccc1)Oc1ccccc1` was inactive: -4.43% [at 11.5 µM]; that for `O=P(Nc1nccs1)(Oc1ccccc1)Oc1ccccc1` was inactive: 4.99% [at 11.5 µM].

For `Nc1ccccc1[As](=O)(O)c1ccccc1`, the “activity change, negative = inhibition” value was inactive: 3%. On the same count and under the same terms, the value for `O=C(O)COc1ccc([As](=O)(O)O)cc1[N+](=O)[O-]` was inactive: 0.197%; that for `O=[N+]([O-])CC(O)c1ccc([N+](=O)[O-])cc1` (centres undefined) was inactive: 3.04% [at 11.5 µM].

Take `NC(=O)Nc1ccc([As](=O)(O)O)cc1`: the activity change, negative = inhibition result is “inactive”. Same read-out and setting: the value for `CN(C(=O)Cc1ccccc1)[C@@H]1CC[C@]2(CCCO2)C[C@H]1N1CCCC1` was “inactive”; that for `CN(C(=O)Cc1ccc(Cl)c(Cl)c1)[C@@H]1CC[C@]2(CCCO2)C[C@H]1N1CCCC1` was inactive: -8.19% [at 11.5 µM].

With `O=C(OC1CN2CCC1CC2)c1ccc(Cl)cc1` (centres undefined), the “activity change, negative = inhibition” value is inactive: -0.885%. With `COc1cc(C(=O)NCC2(N3CCOCC3)CCCCC2)cc(Cl)c1OC(C)C`, the activity change, negative = inhibition was inactive: -3.56% [at 11.5 µM]. Still for that read-out and setting: the value for `O=[As](O)(O)c1cccnc1` was inactive: 1%; that for `O=[As](O)(c1cccc(O)c1)c1cccc(O)c1` was inactive: 4.04%; that for `Nc1cccc2c([As](=O)(O)O)cccc12` was inactive: -8.86%. Regarding `Cc1ccc(NCCc2c([N+](=O)[O-])cc([N+](=O)[O-])cc2[N+](=O)[O-])cc1`, the Potency was active: 28.2 µM. In the case of `CCCOP(=S)(Nc1nc(N)cc(=O)[nH]1)OCCC`, the “activity change, negative = inhibition” value was inactive: -10.3%.

`CCOP(=O)(Nc1cccc2ccccc12)OCC`: the activity change, negative = inhibition was inactive: -13.5% [at 11.5 µM]. The same measure, in the same setting: the value for `COc1cc(C2NCCC3(OCCO3)C2(C)C)cc(OC)c1OC` (centres undefined) was inactive: -18.8% [at 11.5 µM]; that for `CCOP(=O)(Nc1ccc(C)cn1)OCC` was inactive: -13%. Still for that read-out and setting: the value for `CC(C)(C)C(=O)NC(Sc1ncccn1)C(Cl)(Cl)Cl` (centres undefined) was inactive: -2.01%; that for `CC(C)/C=N\N=C(\N)N[N+](=O)[O-]` was inactive: -5.82% [at 11.5 µM]; that for `CN(C(=O)Cc1ccc(Cl)c(Cl)c1)[C@@H]1CCCC[C@H]1N1CCCC1` was “inactive”.

For the compound `O=[As](O)(c1ccccc1Br)c1ccccc1Br`, the “activity change, negative = inhibition” value was inactive: -4.31%.

Regarding `CC1CCC(C(C)C)C(OP(=O)(Nc2ccccn2)c2ccccc2)C1` (centres undefined), the activity change, negative = inhibition is inactive: -11.6% [at 11.5 µM]. Same read-out and setting: then `CN(C)C1(CNC(=O)c2ccc(S(C)(=O)=O)cc2)CCCCC1`, with inactive: -3.22%.

On to `O=C(/C=C/c1ccccc1)OC1CN2CCC1CC2` (centres undefined), for which the “activity change, negative = inhibition” value was inactive: 2.96%. Same read-out and setting: then `Nc1cccc([As](=O)(O)c2ccccc2)c1`, with inactive: 9.27%; and `O=[As](O)(c1cccs1)c1cccs1`, with inactive: -4.35%. Still for that read-out and setting: the value for `O=P(Nc1ccccn1)(c1ccc(Br)cc1)c1ccc(Br)cc1` was inactive: -11.9% [at 11.5 µM]; that for `C[C@H]1OP(=O)(Oc2ccccc2)[C@H](O)[C@H](O)[C@H]1N=[N+]=[N-]` (some centres undefined) was inactive: -8.56%. On to `O=P(Nc1nc2ccccc2s1)(c1ccccc1)c1ccccc1`, for which the “activity change, negative = inhibition” value is inactive: -5.12%.

For `O=[As](O)(c1ccccc1)c1ccc(O)cc1`, the “activity change, negative = inhibition” value is inactive: 5.33%.

Turning to `O=[N+]([O-])c1ncn(CCn2cnc([N+](=O)[O-])n2)n1`, the “activity change, negative = inhibition” value was inactive: 1.07%. On the same count and under the same terms, the value for `CC(=O)NC(SC(=S)N(C)C)C(Cl)(Cl)Cl` (centres undefined) was inactive: -7.77% [at 11.5 µM]; that for `Nc1ccc([As](=O)(O)c2ccc([N+](=O)[O-])cc2)cc1` was inactive: 12.9%; that for `C(Cc1nn[nH]n1)Cc1nn[nH]n1` was inactive: -2.35% [at 11.5 µM]. The same measure, in the same setting: the value for `CC(C)C(=O)NC(Sc1ccccc1)C(Cl)(Cl)Cl` (centres undefined) was inactive: 4.74% [at 11.5 µM]. The same measure, in the same setting: the value for `C[C@@H]1C=CCP(=O)(Oc2ccccc2)O1` (some centres undefined) was inactive: -0.987%. Take `C[C@H]1OP(=O)(Oc2ccccc2)C[C@@H]2O[C@@H]21` (some centres undefined): the “activity change, negative = inhibition” value is inactive: -4.45%. Same read-out and setting: then `CC(=O)Nc1ccc(Oc2c([N+](=O)[O-])cc([N+](=O)[O-])cc2[N+](=O)[O-])cc1`, with inactive: 0.0655% [at 11.5 µM]. With `CC(=O)Nc1ccc([As](=O)(O)O)c(O)c1`, the “activity change, negative = inhibition” value was inactive: -0.46%. On the same count and under the same terms, the value for `Cc1ccc(NP(=O)(Oc2cccc(C)c2)Oc2cccc(C)c2)nc1` was inactive: -11.3%. Still for that read-out and setting: the value for `c1ccc(-c2nn[nH]n2)c(-c2nn[nH]n2)c1` was inactive: 6.67% [at 11.5 µM]. Take `CCNC(=S)/N=C(\N)N[N+](=O)[O-]`: the activity change, negative = inhibition was inactive: -9.16% [at 11.5 µM]. As to `O=C(NC1CCS(=O)(=O)C1)NP(=S)(Oc1ccccc1)Oc1ccccc1` (centres undefined), the activity change, negative = inhibition was inactive: -0.564% [at 11.5 µM]. The same measure, in the same setting: then `CN(C(=O)Cc1ccc(Cl)c(Cl)c1)[C@@H]1CCCC[C@@H]1N1CCCC1`, with inactive: 0.132% [at 11.5 µM].

Values taken from PubChem BioAssay AID1454 (National Center for Advancing Translational Sciences (NCATS), 2008).
